According to PubChem BioAssay AID493011 (Sanford-Burnham Center for Chemical Genomics, 2011):
The entries are a selection whose mix differs from that of the whole data set. Active and inactive are the calls of the source.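 How the source made its calls: active means at least 40% inhibition at 20 µM here, with at most 30% in a related deaminase screen; inactive means the rest.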

By UniProt entry, the sequences of proteins in these tests, tags left out.
UniProt P31941, whole entry: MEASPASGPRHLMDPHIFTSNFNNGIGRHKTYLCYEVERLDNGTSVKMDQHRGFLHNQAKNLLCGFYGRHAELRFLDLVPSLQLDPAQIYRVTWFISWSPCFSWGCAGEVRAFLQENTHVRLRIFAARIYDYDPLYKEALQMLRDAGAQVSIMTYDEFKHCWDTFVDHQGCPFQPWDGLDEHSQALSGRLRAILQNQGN

target: DNA dC->dU-editing enzyme APOBEC-3A (Homo sapiens) (UniProt P31941); test: APOBEC3A ssDNA deaminase inhibitors, primary screen, selectivity assay for APOBEC3G inhibitor project, biochemical, FAM/TAMRA oligo cleavage fluorescence (AID 493011); settings: recombinant A3A, FAM/TAMRA ssDNA deamination fluorescence; at 20 µM; hits give high values;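 further: plate controls were A3A with DMSO for no effect and wells lacking A3A enzyme for full effect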

Compound | inhibition
CCC(=O)N(c1ccccc1)C1(COC)CCN(CCc2cccs2)CC1 | inactive: -1.96%
CCC(=O)N(c1ccccc1)C1(COC)CCN(CCn2nnn(CC)c2=O)CC1 | inactive: 2.55%
